System: Mus musculus
Assay: Compound administered subcutaneously was evaluated for antinociceptive activity determined by hot plate test in mice

## C=CCN1CC[C@]23c4c5ccc(O)c4O[C@H]2[C@@H](O)C=C[C@H]3[C@H]1C5.Cl
  ED50: 9.9 mg/kg
